# US20240002326A1, “COMPOUNDS AND USE THEREOF IN METHODS OF TREATMENT” (The University of Queensland, priority 2016, published 2024)
# Chains of the proteins cited; added tags and fusions are not shown. Residues count along the entry.
# UniProt Q9H6I2, whole entry: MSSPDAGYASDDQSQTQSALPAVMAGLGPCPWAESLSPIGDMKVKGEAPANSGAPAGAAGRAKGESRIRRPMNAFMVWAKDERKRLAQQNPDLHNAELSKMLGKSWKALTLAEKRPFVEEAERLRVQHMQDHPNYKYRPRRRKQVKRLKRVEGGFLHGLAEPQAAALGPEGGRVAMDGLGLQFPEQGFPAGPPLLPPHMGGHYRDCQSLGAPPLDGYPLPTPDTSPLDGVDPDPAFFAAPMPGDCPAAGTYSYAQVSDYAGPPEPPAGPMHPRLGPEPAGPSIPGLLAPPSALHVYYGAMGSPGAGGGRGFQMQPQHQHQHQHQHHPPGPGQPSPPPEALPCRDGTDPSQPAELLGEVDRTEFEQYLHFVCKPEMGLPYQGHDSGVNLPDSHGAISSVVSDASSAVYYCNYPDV
# UniProt P05979, 25-600 limits assumed: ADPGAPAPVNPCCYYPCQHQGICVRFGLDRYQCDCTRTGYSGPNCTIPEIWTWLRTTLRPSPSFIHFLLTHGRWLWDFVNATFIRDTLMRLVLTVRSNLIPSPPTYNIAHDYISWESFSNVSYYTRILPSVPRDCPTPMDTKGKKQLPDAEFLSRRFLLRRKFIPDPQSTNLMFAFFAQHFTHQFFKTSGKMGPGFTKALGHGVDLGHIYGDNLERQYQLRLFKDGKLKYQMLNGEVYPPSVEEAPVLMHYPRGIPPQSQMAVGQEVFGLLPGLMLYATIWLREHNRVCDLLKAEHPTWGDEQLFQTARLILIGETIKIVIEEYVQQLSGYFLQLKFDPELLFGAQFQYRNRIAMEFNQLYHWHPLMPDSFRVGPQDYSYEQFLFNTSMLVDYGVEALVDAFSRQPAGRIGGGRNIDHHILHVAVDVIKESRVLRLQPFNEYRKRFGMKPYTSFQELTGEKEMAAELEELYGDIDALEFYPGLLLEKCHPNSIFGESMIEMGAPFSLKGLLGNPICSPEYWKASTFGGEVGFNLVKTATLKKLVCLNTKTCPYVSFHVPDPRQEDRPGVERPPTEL
# Tests used:
# Glutamate, NMDA = assay: Off-target radioligand binding, Glutamate NMDA; conditions: Rat
# SOX17-OCT4 = SOX17-OCT4 (Homo sapiens (Human), UniProt Q9H6I2); assay: ALPHA-Screen SOX17-OCT4 interaction; type: binding; conditions: 50 uM Sm4
# Excerpt: The genetically encoded tags used here are enhanced GFP (GFP), mCherry (Cherry) and cMyc (myc). The proteins were cloned into the following cell free expression Gateway destination vectors respectively: N-terminal GFP tagged (pCellFree_G03), N-terminal Cherry-cMyc (pCellFree_G07) and C-terminal Cherry-cMyc tagged (pCellFree_G08) (Gagoski et al. 2015). The Open Reading Frames (ORFs) corresponding to the human SOX7 (BC071947), SOX17, RBPJ (BC020780) and MEF2C (BC026341) were sourced from the Human ORFeome collection version 1.1 and 5.1 or the Human Orfeome collaboration OCAA collection (Open Biosystems) as previously described and cloned at the ARVEC facility, UQ Diamantina Institute. […]
# The ALPHA-Screen Assay was performed as previously described (Sierecki et al. 2014), using the cMyc detection kit and Proxiplate-384 Plus plates (PerkinElmer). A serial dilution of each sample was measured. […] The ALPHA-Screen signal was obtained on an Envision Multilabel Plate Reader (PerkinElmer), using the manufacturer's recommended settings (excitation: 680/30 nm for 0.18 s, emission: 570/100 nm after 37 ms). […] The Binding Index was calculated as: BI=[(I−I_neg)/(I_ref−I_neg)]×100
# For PPI disruption assay, protein pairs expressed in LTE were incubated for 1 h with 100 μM Sm4 or DMSO alone (0.7% DMSO final). 100 μM Sm4 or DMSO was also added to buffer B. PPI disruption was calculated as: (1−I_Sm4/I_DMSO)×100.
# [1] = tested on: combined activity of Sox7 and Sox18; assay: Zebrafish tg(−6.5kdrl:eGFP) SoxF reporter; type: in vivo
# Experimental: Total RNA was extracted using RNeasy mini kit (Qiagen, 74106) according to the manufacturers protocol, including on column DNA digestion. cDNA was synthetized from 1 μg of purified RNA using the high capacity cDNA reverse transcription kit (Life Technologies, 4368813). Amplification and quantitation of target cDNA was performed in technical triplicate of at least 3 biological replicates using the SYBR green (Life Technologies, 4312704) methods. Reactions were run in 10 μL in 384-well plates using the ViiA 7 Real-Time PCR system. Housekeeper genes (β-actin for tg(Dll4 in3:eGFP), ef1α for tg(−6.5kdrl:eGFP), chd5 for tg(flila:eGFP, −6.5kdrl:mCherry), RPL13 and GAPDH for HUVECs) were selected based on the stability of their expression throughout the set of experimental conditions, or chosen on grounds of their vascular expression to normalize to endothelial cell content. Primer efficiencies were calculated using LinRegPCR, and amplification data was analysed using ViiA7 software and the Q-gene PCR analysis template.
# Zebrafish were maintained as previously described (Hogan et al. 2009), and all procedures involving animals conformed to guidelines of the animal ethics committee at the University of Queensland (IMB/030/16/NHMRC/ARC/HF) or were approved by local ethical review and licensed by the UK Home Office (PPL 30/2783 and PPL 30/3324). […]
# zebrafish larvae = assay: Zebrafish vascular phenotype, tg(fli1a:eGFP,−6.5kdrl:mCherry)
# ovine COX1 = ovine COX1 (Ovis aries (Sheep), UniProt P05979); assay: COX1 enzymatic assay; conditions: up to a concentration of 200 μM
smiles,measurement,setting,value
O=C(O)c1c(O)cccc1CCc1ccc2ccccc2c1,Inhibition at 10 μM (%),"Glutamate, NMDA",−5%
same,SOX17-OCT4 interaction,SOX17-OCT4,affected
same,reduction of SOX18-dependent egfp transcript levels,"[1]; 1 μM Sm4 from 20 hpf, qRT-PCR",61%
same,toxicity in zebrafish embryos,[1]; treated at 20 hpf,no evidence of toxicity
same,qRT-PCR of blood vascular markers,"zebrafish larvae; 1.5 μM Sm4, 24 and 48 hpf, vs DMSO",significant dysregulation of arterial and venous genes
same,vascular phenotype,zebrafish larvae; 1.5 μM Sm4 from 16 hpf,enlarged posterior cardinal vein (PCV) at the expense of the dorsal aorta (DA)
same,Sox7 specific phenotype (lateral dorsal artery),"zebrafish larvae; zebrafish, in vivo",minor malformation to the LDA
same,COX-1 inhibitory activity,ovine COX1,None of the SOX18 inhibitor display any COX-1 or COX-2 inhibitory activity
